Earlier results, collected in US9937165B2, “Pharmacological chaperones for treating obesity” (Amicus Therapeutics, Inc., priority 2005, dated 2018).

Amino acid sequences for entries named in this document (tags omitted).
UniProt P32245, whole entry I317T: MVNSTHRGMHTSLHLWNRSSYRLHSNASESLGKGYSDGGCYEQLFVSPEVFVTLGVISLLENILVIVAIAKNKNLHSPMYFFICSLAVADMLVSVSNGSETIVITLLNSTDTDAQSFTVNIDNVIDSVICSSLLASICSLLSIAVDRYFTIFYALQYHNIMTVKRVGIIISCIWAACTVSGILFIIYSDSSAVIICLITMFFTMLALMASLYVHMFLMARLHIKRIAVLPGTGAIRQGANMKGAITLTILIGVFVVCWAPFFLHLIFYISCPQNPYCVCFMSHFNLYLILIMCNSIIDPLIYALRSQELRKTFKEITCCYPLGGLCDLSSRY
UniProt P32245, whole entry I301T: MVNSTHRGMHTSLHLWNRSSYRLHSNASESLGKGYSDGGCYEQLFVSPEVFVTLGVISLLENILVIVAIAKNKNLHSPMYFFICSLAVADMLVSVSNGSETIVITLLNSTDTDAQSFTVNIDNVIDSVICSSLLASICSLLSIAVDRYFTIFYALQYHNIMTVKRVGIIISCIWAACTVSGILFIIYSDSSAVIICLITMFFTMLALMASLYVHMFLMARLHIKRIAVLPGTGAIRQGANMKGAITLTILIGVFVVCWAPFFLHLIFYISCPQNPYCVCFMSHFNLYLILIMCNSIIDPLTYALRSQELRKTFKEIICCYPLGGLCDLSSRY
UniProt P32245, whole entry S30F/G252S: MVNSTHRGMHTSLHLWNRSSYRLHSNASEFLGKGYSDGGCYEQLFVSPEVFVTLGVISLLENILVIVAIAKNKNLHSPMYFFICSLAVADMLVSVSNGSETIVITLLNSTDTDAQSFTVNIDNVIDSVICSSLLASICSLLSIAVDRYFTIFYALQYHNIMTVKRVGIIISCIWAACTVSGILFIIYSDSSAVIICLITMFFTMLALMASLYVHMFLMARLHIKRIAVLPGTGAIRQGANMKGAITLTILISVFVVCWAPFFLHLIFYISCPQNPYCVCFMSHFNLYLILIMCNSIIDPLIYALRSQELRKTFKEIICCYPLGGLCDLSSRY
UniProt P32245, whole entry I170V: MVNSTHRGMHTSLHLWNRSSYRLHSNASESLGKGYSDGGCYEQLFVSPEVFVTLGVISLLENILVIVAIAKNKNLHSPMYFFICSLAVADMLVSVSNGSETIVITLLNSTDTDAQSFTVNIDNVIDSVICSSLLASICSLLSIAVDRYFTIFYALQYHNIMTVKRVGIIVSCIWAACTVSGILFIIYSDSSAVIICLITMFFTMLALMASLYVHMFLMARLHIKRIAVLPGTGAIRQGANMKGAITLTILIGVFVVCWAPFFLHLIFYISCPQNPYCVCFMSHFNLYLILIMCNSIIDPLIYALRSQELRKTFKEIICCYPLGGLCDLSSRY
UniProt P32245, whole entry R165Q: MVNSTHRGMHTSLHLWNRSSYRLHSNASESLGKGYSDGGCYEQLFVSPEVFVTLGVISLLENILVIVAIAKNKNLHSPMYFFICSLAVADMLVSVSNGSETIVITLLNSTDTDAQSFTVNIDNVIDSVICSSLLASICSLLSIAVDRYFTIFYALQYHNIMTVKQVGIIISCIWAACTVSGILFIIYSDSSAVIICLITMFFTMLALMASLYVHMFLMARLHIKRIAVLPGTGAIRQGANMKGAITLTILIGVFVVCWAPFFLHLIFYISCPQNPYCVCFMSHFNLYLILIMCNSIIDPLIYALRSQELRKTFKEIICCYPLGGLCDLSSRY
UniProt P32245, whole entry T112M: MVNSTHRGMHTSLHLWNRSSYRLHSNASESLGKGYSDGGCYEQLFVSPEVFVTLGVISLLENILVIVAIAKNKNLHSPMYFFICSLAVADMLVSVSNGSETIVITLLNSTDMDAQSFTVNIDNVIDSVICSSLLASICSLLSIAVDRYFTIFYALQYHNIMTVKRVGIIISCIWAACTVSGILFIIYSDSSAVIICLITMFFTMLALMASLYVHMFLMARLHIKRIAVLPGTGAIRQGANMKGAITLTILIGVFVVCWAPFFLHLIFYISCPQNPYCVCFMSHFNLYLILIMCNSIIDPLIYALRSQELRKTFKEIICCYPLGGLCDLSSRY
UniProt P32245, whole entry R165W: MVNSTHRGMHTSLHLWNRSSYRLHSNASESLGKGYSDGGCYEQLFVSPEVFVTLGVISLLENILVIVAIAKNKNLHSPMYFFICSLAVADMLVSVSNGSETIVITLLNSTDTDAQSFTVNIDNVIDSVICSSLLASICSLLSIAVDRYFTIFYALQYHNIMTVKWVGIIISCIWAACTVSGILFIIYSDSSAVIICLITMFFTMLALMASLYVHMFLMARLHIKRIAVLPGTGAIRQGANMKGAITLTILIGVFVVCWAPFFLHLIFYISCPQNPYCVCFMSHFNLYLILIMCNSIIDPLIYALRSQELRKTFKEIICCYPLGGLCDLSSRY
UniProt P32245, whole entry V253I: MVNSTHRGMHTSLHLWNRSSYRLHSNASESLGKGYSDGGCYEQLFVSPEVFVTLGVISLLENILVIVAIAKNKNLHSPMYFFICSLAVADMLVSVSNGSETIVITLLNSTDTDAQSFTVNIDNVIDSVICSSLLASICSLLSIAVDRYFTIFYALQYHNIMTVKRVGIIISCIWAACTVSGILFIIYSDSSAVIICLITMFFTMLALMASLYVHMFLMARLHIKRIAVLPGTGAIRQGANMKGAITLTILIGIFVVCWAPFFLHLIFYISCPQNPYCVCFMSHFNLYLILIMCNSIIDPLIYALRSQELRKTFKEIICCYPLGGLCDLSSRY
UniProt P32245, whole entry L250Q: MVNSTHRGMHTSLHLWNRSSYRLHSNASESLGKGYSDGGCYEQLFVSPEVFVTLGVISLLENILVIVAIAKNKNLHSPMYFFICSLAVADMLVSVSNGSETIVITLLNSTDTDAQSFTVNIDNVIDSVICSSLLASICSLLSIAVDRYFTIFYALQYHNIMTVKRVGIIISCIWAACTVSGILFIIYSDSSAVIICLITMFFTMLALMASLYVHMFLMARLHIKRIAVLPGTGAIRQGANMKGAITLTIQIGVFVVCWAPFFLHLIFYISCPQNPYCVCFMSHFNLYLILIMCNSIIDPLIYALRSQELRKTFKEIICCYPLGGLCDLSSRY
UniProt P32245, whole entry: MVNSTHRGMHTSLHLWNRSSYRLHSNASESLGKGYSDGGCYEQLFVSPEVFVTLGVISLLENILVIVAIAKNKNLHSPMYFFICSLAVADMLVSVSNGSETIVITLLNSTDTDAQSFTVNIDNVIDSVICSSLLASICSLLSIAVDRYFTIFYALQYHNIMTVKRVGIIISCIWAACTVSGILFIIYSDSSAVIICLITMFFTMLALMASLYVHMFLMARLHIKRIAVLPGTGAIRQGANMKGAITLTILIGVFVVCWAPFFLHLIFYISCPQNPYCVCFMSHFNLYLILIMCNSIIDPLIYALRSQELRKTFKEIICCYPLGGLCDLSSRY

Tests used:
MC4R I317T = MC4R I317T (Homo sapiens, UniProt P32245, I317T); conditions: mutant I317T; +/- S.E.; cited from earlier work
MC4R I301T = MC4R I301T (Homo sapiens, UniProt P32245, I301T); conditions: mutant I301T; +/- S.E.; cited from earlier work
MC4R S30F/G252S = MC4R S30F/G252S (Homo sapiens, UniProt P32245, G252S/S30F); conditions: mutant S30F/G252S; +/- S.E.; cited from earlier work
MC4R I170V = MC4R I170V (Homo sapiens, UniProt P32245, I170V); conditions: mutant I170V; +/- S.E.; cited from earlier work
MC4R R165Q (C886A) = MC4R R165Q (C886A) (Homo sapiens, UniProt P32245, R165Q); conditions: mutant R165Q (C886A); +/- S.E.; cited from earlier work
MC4R T112M = MC4R T112M (Homo sapiens, UniProt P32245, T112M); conditions: mutant T112M; +/- S.E.; cited from earlier work
MC4R R165W (C886T) = MC4R R165W (C886T) (Homo sapiens, UniProt P32245, R165W); conditions: mutant R165W (C886T); +/- S.E.; cited from earlier work
MC4R V253I (A700G) = MC4R V253I (A700G) (Homo sapiens, UniProt P32245, V253I); conditions: mutant V253I (A700G); +/- S.E.; cited from earlier work
MC4R L250Q = MC4R L250Q (Homo sapiens, UniProt P32245, L250Q); conditions: mutant L250Q; +/- S.E.; cited from earlier work
WT MC4R = WT MC4R (Homo sapiens, UniProt P32245); conditions: +/- S.E.; cited from earlier work
MC4R = MC4R (Homo sapiens, UniProt P32245); conditions: cited from earlier work

| Compound | IC50 (MC4R I317T) | IC50 (MC4R I301T) | IC50 (MC4R S30F/G252S) | IC50 (MC4R I170V) | IC50 (MC4R R165Q (C886A)) | IC50 (MC4R T112M) | IC50 (MC4R R165W (C886T)) | IC50 (MC4R V253I (A700G)) | IC50 (MC4R L250Q) | IC50 (WT MC4R) | IC50 (MC4R) |
| --- | --- | --- | --- | --- | --- | --- | --- | --- | --- | --- | --- |
| ^125I-[Nle^4,D-Phe^7]α-MSH | 7.8 ± 0.44 nM | 5.8 ± 0.78 nM | 6.7 ± 0.3 nM | 8.9 ± 1.7 nM | 8.9 ± 12 nM | 5.4 ± 0.64 nM | 8.7 ± 1 nM | 8.1 ± 0.25 nM | 3.4 ± 0.69 nM | 9.1 nM | – |
| O=C(N[C@H](Cc1ccc(Cl)cc1)C(=O)N1CCN(c2ccccc2CN2CCCC2)CC1)[C@H]1Cc2ccccc2CN1 [Compound 2] | – | – | – | – | – | – | – | – | – | – | 24 nM |
